Assay results taken from patent US20040082598A1, “Compounds specific to adenosine A, receptors and uses thereof” (OSI Pharmaceuticals, Inc., priority 2000, published 2004).

Chains of the proteins cited; added tags and fusions are not shown. Lines headed by an entry give the natural chain unless they say otherwise; changes in a name come on top.
UniProt P30542, whole entry: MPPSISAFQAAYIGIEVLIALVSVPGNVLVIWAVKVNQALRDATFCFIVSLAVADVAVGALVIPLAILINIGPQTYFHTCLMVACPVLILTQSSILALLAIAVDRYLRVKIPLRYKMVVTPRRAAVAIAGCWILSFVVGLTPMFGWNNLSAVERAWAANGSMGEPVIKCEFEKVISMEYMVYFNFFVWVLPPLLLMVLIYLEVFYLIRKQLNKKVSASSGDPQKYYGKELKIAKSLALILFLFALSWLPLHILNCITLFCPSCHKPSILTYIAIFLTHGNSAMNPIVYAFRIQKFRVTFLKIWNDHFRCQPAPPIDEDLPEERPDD
UniProt P0DMS8, whole entry: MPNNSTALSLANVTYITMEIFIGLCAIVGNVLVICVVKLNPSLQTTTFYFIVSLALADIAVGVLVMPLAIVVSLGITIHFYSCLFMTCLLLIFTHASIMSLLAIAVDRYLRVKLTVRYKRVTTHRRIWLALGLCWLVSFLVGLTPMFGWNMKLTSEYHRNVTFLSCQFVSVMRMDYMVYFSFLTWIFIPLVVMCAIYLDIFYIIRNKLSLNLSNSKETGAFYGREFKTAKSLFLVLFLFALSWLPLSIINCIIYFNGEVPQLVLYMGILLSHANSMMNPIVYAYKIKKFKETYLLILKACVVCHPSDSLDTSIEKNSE

Legend:
human adenosine A1 (A1R) = biological target: T1, human adenosine A1 (A1R) (Homo sapiens, UniProt P30542); assay: Yeast β-galactosidase reporter gene assay, strain CY12660; format: cell-based; conditions: inhibition of NECA-induced β-galactosidase activity
T1 construct: yeast alpha-factor (Mfα1) prepro leader (N, cleaved yes); expressed in transfected cells; host or cells: Saccharomyces cerevisiae (strain CY12660 or related strains carrying plasmid p5095)

human A3 receptor = human A3 receptor (Homo sapiens, UniProt P0DMS8); assay: Displacement binding, yeast membranes expressing hA3R; conditions: read-out: IC50 hA3R

Row | Compound | IC50 (human adenosine A1 (A1R)) [nM] | IC50 (human A3 receptor) [nM]
1 | Cc1[nH]c2nc(-c3ccccc3)nc(NC3CC[C@@H](O)[C@@H](O)C3)c2c1C (some centres unmarked) [Compound 602] | > 10000 | 
2 | C[C@H](Cc1ccccc1)Nc1ncnc2c1ncn2[C@@H]1O[C@H](CO)[C@@H](O)[C@H]1O [R-PIA] |  | 23.6
